Data on one substance can be found in article PMC10223265 (Viruses, 2023).

Sequences of proteins named here, by UniProt entry; tags and fusion partners are left off.
UniProt P51681, whole entry: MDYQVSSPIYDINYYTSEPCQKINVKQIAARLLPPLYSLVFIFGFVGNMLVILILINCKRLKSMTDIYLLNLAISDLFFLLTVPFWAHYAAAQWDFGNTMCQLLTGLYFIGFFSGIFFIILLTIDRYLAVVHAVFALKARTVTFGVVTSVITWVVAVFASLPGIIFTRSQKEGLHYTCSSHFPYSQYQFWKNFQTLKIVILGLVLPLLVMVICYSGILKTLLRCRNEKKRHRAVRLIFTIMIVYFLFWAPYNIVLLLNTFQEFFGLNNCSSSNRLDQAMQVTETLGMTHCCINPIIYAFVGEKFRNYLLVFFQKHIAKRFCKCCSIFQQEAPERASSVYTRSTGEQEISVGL

The experiment has as its target CCR5 (Homo sapiens, UniProt P51681). The experiment can be described thus: RANTES-induced calcium mobilization assay in CCR5-expressing HEK293 cells. Format: cell-based. Particulars: RANTES 34.6 nM, HEK293 cells expressing Gα15 and CCR5, Fluo-4.

For the substance maraviroc, the IC50 (as a rule, the concentration that gives 50% inhibition) was 0.68 nM.
